The assay concerns the target T1, JAK2 (JH1 domain) (Homo sapiens, UniProt O60674).
T1 construct: inferred from 'similar to the method' for TYK2 JH2; DiscoverX (KINOMEscan)
Briefly: JAK2 JH1 domain binding assay (KINOMEscan).

Protein sequences, listed by entry. Tags and fused reporters are not part of them. Residues count along the entry.
UniProt O60674, 849-1124 limits assumed: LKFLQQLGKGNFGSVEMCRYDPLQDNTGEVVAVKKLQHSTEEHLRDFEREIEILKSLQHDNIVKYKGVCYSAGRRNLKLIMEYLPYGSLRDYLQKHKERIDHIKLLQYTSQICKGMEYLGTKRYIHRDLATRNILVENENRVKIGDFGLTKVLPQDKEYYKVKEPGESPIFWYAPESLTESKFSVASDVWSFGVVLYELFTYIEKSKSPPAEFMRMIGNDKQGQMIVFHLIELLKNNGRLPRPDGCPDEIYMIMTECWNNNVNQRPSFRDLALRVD

With `[2H]C([2H])([2H])NC(=O)c1nnc(NC(=O)C2CC2)cc1Nc1cccc(-c2ncn(C)n2)c1OC` [control, BMS-986165, reference compound], the Kd worked out at 2100 nM.

Values taken from patent publication US20250276977A1, “TYK2 INHIBITORS AND USES THEREOF” (Alumis Inc., priority 2019, published 2025).
